# According to PubChem BioAssay (Tox21):
# Sequences of proteins named here, by UniProt entry; tags and fusion partners are left off.
# UniProt P19793, whole entry: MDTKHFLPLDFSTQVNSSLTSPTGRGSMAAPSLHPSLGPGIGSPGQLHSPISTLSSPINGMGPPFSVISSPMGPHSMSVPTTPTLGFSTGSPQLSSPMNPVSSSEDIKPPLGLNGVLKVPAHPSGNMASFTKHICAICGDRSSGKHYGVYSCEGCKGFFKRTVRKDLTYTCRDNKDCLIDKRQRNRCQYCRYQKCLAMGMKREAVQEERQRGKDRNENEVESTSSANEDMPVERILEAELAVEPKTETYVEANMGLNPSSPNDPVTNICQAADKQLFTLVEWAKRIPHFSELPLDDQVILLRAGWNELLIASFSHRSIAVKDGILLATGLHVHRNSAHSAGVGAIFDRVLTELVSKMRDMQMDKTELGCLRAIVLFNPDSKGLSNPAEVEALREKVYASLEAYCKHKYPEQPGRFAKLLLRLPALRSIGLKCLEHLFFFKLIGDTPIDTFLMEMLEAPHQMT
# UniProt P08659, whole entry: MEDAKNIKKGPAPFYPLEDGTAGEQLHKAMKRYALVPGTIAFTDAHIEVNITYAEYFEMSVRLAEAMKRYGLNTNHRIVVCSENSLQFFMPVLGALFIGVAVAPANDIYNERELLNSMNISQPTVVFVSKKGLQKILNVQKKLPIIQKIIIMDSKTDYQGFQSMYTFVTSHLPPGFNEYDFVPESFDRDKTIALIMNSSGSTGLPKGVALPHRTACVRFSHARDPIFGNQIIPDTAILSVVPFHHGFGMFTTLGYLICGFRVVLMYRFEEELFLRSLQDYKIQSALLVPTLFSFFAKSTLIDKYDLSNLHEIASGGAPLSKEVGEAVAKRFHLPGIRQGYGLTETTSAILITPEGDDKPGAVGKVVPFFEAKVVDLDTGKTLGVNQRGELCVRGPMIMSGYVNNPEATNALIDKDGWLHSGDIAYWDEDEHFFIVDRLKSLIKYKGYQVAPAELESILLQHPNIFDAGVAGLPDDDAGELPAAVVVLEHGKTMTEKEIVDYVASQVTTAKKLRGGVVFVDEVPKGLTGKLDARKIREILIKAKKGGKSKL
# UniProt Q14994, whole entry: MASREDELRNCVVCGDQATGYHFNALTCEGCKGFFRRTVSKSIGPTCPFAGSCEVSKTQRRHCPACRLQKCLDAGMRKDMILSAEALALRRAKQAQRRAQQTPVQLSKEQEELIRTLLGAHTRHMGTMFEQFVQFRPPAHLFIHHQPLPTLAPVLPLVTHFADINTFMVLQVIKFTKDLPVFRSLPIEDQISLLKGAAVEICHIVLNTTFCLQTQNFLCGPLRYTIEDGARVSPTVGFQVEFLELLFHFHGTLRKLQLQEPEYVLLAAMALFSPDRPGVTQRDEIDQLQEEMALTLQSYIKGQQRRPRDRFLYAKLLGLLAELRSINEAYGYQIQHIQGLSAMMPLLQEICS
# “And” between values parts separate entries of the source, which are not always exact repeats. Identical values can stand only once. Only a part is listed here, and it is no random draw. Records with an inconclusive call do not appear. The source made the active and inactive calls. Unless noted, calls come from the whole dose curve; as a rule, active = well fitted curve in the direction sought with a large enough effect in the repeat runs; inconclusive = weak or mixed curves; inactive = no such curve, though single readings can be large; an effect the other way counts as inactive or inconclusive.
# What was measured:
# [1] = qHTS assay to identify small molecule agonists of the NFkB signaling pathway - cell viability counter screen (AID 1159515; calls by dose curve; note: % is set by controls: 0 for no effect and ±100 for the full control effect; nearly all actives have a fitted effect of over 55% in size); conditions: NFkB-bla ME-180 viability, CellTiter-Glo luminescence, 5 h
# Summary of the method: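 5 hr compound treatment of NFkB-bla ME-180 cells (2,000/well, seeded overnight beforehand), followed by reporter substrate for 1.5 hr. CellTiter-Glo added afterward; luminescence after 30 min RT.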
# [2] = qHTS assay to identify small molecule agonists of the AP-1 signaling pathway - cell viability counter screen (AID 1159525; calls by dose curve; note: nearly all actives have a fitted effect of over 55% in size); conditions: ME-180 AP-1-bla cells viability, ATP luminescence, 5 h
# Summary of the method: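 ME-180 AP-1-bla, 2500 cells/well, Opti-MEM + 0.5% dialyzed FBS; overnight 37 °C; cpd 15-pt titration, 5 h 37 °C; CellTiter-Glo 30 min RT; luminescence read; normalised to TOAB and DMSO controls.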
# [3] = target: Retinoic acid receptor RXR-alpha (Homo sapiens) (UniProt P19793); assay: qHTS assay to identify small molecule agonists of the RXR signaling pathway (AID 1159527; calls by dose curve; note: nearly all actives have a fitted effect of over 35% in size; note: potency is the fitted concentration of half-maximal effect); conditions: HEK293T RXRa-UAS-bla, beta-lactamase ratio, 16 h; series mostly up to 76.8 µM
# Summary of the method: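 Agonist mode; 9-cis retinoic acid positive control. HEK 293T UAS-bla reporter cells, 2% charcoal-stripped FBS, 16 hr compound exposure at 37 C/5% CO2. LiveBLAzer B/G FRET substrate 2 hr RT; ex 405, em 460/530 nm.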
# [4] = qHTS assay to identify small molecule antagonists of the retinoic acid receptor (RAR) signaling pathway (AID 1159552; note: % is set by controls: 0 for no effect and ±100 for the full control effect; nearly all actives have a fitted effect of over 50% in size); conditions: C3RL4 RARE luciferase reporter, retinol-stimulated, 6 h
# Summary of the method: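 Luminescence from a RARE luciferase reporter in C3RL4 cells served as read-out. Cells received compounds together with 1 uM final retinol and incubated 6 hr at 37 C before detection reagent was added for 30 min at room temperature.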
# [5] = qHTS assay to identify small molecule agonists of the retinoic acid receptor (RAR) signaling pathway (AID 1159553); conditions: C3RL4 RARE luciferase reporter, agonist, 6 h; note: % is set by controls: 0 for no effect and ±100 for the full control effect
# Summary of the method: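 Activation of retinol signaling was monitored via a RARE luciferase reporter in C3RL4 cells. After 6 hr compound treatment at 37 C, detection reagent was added for 30 min at room temperature before luminescence reading.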
# [6] = qHTS assay to identify small molecule antagonists of the estrogen related receptor (ERR) signaling pathway - cell viability counter screen (AID 1224818); conditions: ERR reporter cell line viability counter screen; at 92.2 µM (top of the series);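 note: viability measured after 17.5 h of compound exposure; % is set by controls: 0 for no effect and ±100 for the full control effect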
# Summary of the method: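 In the same ERR cell assay, compound-treated wells (17.5 h, 37 C) were multiplexed with a fluorogenic viability reagent, CellTiter-Fluor, read after 30 min to flag cytotoxic substances.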
# [7] = qHTS assay to identify small molecule antagonists of the estrogen related receptor (ERR) signaling pathway (AID 1224819;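 note: luminescence from an ERR-driven luciferase reporter measured with One-Glo reagent; % is set by controls: 0 for no effect and ±100 for the full control effect; nearly all actives have a fitted effect of over 50% in size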); conditions: ERR reporter cell line, luciferase inhibition; at 92.2 µM (top of the series)
# Summary of the method: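 qHTS in ERR cells, 2,000/well, 1536 format. Cpd (DMSO) added after 6 h settle, 18 h 37 C. One-Glo luminescence, 30 min RT.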
# [8] = qHTS assay to identify small molecule agonists of the estrogen related receptor (ERR) signaling pathway (AID 1224820); conditions: ERR reporter cell line, luciferase agonist mode; at 92.2 µM (top of the series); note: % is set by controls: 0 for no effect and ±100 for the full control effect
# Summary of the method: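 Quantitative HTS of the LOPAC library used NTP ERR reporter cells treated 18 h at 37 C. Signal is luminescence after One-Glo addition and a 30 min room-temperature incubation.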
# [9] = tested on: estrogen-related receptor alpha (ERRalpha) with PGC-1alpha coactivator, human; assay: qHTS assay to identify small molecule antagonists of the estrogen related receptor signaling pathway with the pleiotropic PPARgamma coactivator (PGC) (AID 1224821; calls by dose curve;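 note: % is set by controls: 0 for no effect and ±100 for the full control effect; lower luminescence signal means antagonism of PGC/ERR signalling; nearly all actives have a fitted effect of over 50% in size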); conditions: ERR/PGC reporter cell line, luciferase, antagonist mode; at 92.2 µM (top of the series)
# Summary of the method: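 Quantitative HTS for antagonism: PGC/ERR cells received compounds after 6 h attachment and were incubated 18 h at 37 C, with luminescence (One-Glo) as the endpoint.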
# [10] = qHTS assay to identify small molecule antagonists of the estrogen related receptor signaling pathway with the pleiotropic PPARgamma coactivator (PGC) cell viability counter screen (AID 1224822; note: % is set by controls: 0 for no effect and ±100 for the full control effect); conditions: ERR/PGC reporter cell line viability counter screen; at 92.2 µM (top of the series)
# Summary of the method: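 Compounds in DMSO, with positive and negative controls, were applied to PGC/ERR cells (2,000/well) and left 17.5 h at 37 C before CellTiter-Fluor detection.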
# [11] = qHTS assay to identify small molecule agonists of the estrogen related receptor signaling pathway with the pleiotropic PPARgamma coactivator (PGC) (AID 1224823); conditions: ERR/PGC reporter cell line, luciferase agonist mode; at 92.2 µM (top of the series); note: % is set by controls: 0 for no effect and ±100 for the full control effect
# Summary of the method: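 Cell-based luciferase assay in the NTP-supplied PGC/ERR line, 2,000 cells/well; 18 h compound exposure at 37 C, luminescence after One-Glo.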
# [12] = target: Luciferin 4-monooxygenase (Photinus pyralis) (UniProt P08659); assay: qHTS assay to identify small molecule inhibitors of firefly luciferase (AID 1224835); note: % is set by controls: 0 for no effect and ±100 for the full control effect; nearly all actives have a fitted effect of over 25% in size; conditions: purified P. pyralis luciferase, luminescence inhibition; series mostly up to 115 µM
# Summary of the method: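 Quantitative HTS format; KM concentrations of both substrates. Purified P. pyralis FLuc activity quantified from luminescence images.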
# [13] = target: Nuclear receptor subfamily 1 group I member 3 (Homo sapiens) (UniProt Q14994); assay: qHTS assay to identify small molecule antagonists of the constitutive androstane receptor (CAR) signaling pathway (AID 1224838); conditions: HepG2-CYP2B6-hCAR luciferase, CITCO-stimulated, 24 h;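 note: HepG2 cells stably expressing hCAR with CYP2B6 luciferase reporter stimulated by CITCO; % is set by controls: 0 for no effect and ±100 for the full control effect; nearly all actives have a fitted effect of over 40% in size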
# [14] = target: Nuclear receptor subfamily 1 group I member 3 (Homo sapiens) (UniProt Q14994); assay: qHTS assay to identify small molecule agonists of the constitutive androstane receptor (CAR) signaling pathway (AID 1224839); conditions: HepG2 hCAR CYP2B6-luciferase, agonist mode, 24 h; series mostly up to 92.4 µM; note: potency is the fitted concentration of half-maximal effect; nearly all actives have a fitted effect of over 15% in size
# [15] = qHTS assay to identify small molecule antagonists of the vitamin D receptor (VDR) signaling pathway - cell viability counter screen (AID 743225); conditions: VDR-bla HEK293T viability, CellTiter-Glo luminescence, 16 h; note: % is set by controls: 0 for no effect and ±100 for the full control effect; nearly all actives have a fitted effect of over 50% in size
# Summary of the method: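 Viability counter screen run in the same wells as the beta-lactamase reporter assay: HEK 293T VDR-UAS-bla cells, 16 h compound exposure at 37C with 3 nM (final) 1-alpha,25-dihydroxyvitamin D3. CellTiter-Glo luminescence, 30 min, room temperature.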
# [16] = qHTS assay to identify small molecule agonists of the endoplasmic reticulum stress response signaling pathway (AID 1159516; active = well fitted activation curve with a large enough effect in the signal ratio in the repeat runs, not every such curve was filed as active; the % refers to the signal ratio; note: % is set by controls: 0 for no effect and ±100 for the full control effect); conditions: ESRE-bla HeLa, ER stress beta-lactamase reporter, 5 h
# Summary of the method: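 Reporter HeLa cells (ESRE-beta-lactamase) underwent 5 hr compound incubation at 37 C and 5% CO2 in quantitative HTS format. Detection followed 2 hr of FRET substrate loading at room temperature.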
# [17] = qHTS assay to identify small molecule agonists of the endoplasmic reticulum stress response signaling pathway - cell viability counter screen (AID 1159517; calls by dose curve); conditions: ESRE-bla HeLa viability, CellTiter-Glo luminescence, 5 h
# Summary of the method: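 Luminescence readout: CellTiter-Glo, 30 min RT, same wells as the ESRE-bla reporter read. HeLa ESRE-bla, 1,500 cells/well, o/n 37 C; cpd 5 hr 37 C/5% CO2.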
# [18] = target: Nuclear receptor ROR-gamma (Homo sapiens) (UniProt P51449); assay: qHTS assay to identify small molecule antagonists of the retinoid-related orphan receptor gamma (ROR-gamma) signaling pathway (AID 1159521); conditions: Tet-on RORgamma CHO cells, RORE-luciferase, 16 h
# [19] = qHTS assay to identify small molecule agonists of the AP-1 signaling pathway (AID 1159526; calls by dose curve; note: % is set by controls: 0 for no effect and ±100 for the full control effect); conditions: ME-180 (cervical carcinoma) AP-1-bla reporter, beta-lactamase FRET ratio, 5 h
# [20] = qHTS assay to identify small molecule antagonists of the estrogen related receptor (ERR) signaling pathway from Tox21 library - cell viability counter screen (AID 1224834); conditions: ERR reporter cells viability, CellTiter-Fluor, 17.5 h; note: % is set by controls: 0 for no effect and ±100 for the full control effect; nearly all actives have a fitted effect of over 30% in size
# Summary of the method: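 CellTiter-Fluor fluorescence measured; ERR cells; 17.5 h compound incubation at 37 C; 30 min reagent step.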
# [21] = at 76.8 µM (top of the series) unless noted
smiles,measurement,setting,value
Cc1cccc([N+](=O)[O-])c1[N+](=O)[O-],"activity, negative = cytotoxic",[1]; at 61 µM (top of the series),inactive: -15.7%
same,"viability change, negative = cytotoxic",[2]; [21],inactive: 1.23% [at 35.3 µM]
same,Potency,[3],active: 20.7 µM
same,"activity, negative = inhibition",[4]; at 42.5 µM (top of the series),inactive: 9.41%
same,activation,[5]; at 73.3 µM (top of the series),inactive: 1.34%
same,"viability change, negative = cytotoxic",[6],inactive: 13.9%
same,"activity change, negative = inhibition",[7],inactive: -8.77%
same,activation,[8],inactive: -10.1%
same,"activity change, negative = inhibition",[9],inactive: -0.186%
same,"viability change, negative = cytotoxic",[10],inactive: 5.68%
same,activation,[11],inactive: -3%
same,Potency,[12],inactive
same,"activity, negative = inhibition",[13]; at 42.5 µM (top of the series),inactive: 120%
same,Potency,[14],active: 18.3 µM
COP(C)(=O)OC,"viability change, negative = cytotoxic",[15]; at 61 µM (top of the series),inactive: 1.21%
same,"viability change, negative = cytotoxic",[15]; at 78.8 µM (top of the series),inactive: 5.86%
same,"activity, negative = cytotoxic",[1]; at 61 µM (top of the series),inactive: 14.4%
same,"activity, negative = cytotoxic",[1]; at 78.8 µM (top of the series),inactive: 0.994%
same,activation,[16]; at 61 µM (top of the series),inactive: -1.35%
same,activation,[16]; at 78.8 µM (top of the series),inactive: -0.0296%
same,"activity change, negative = cytotoxicity",[17]; at 61 µM (top of the series),inactive: -12.2%
same,"activity change, negative = cytotoxicity",[17]; at 78.8 µM (top of the series),inactive: 11.8%
same,"activity change, negative = inhibition",[18]; at 92.4 µM (top of the series),inactive: -7.22% and inactive: 11.3%
same,"viability change, negative = cytotoxic",[2]; [21],inactive: 1.02% and inactive: -12.7%
same,activation,[19]; at 76.8 µM (top of the series),inactive: -0.182%
same,Potency,[3],inactive
same,"activity, negative = inhibition",[4]; at 92.4 µM (top of the series),inactive: -0.662% and inactive: 49.6%
same,activation,[5]; at 94.8 µM (top of the series),inactive: 0.226%
same,"viability change, negative = cytotoxic",[20]; at 92.4 µM (top of the series),inactive: 0.827% and inactive: -1.2%
same,Potency,[12],inactive
O=[N+]([O-])c1cccc([N+](=O)[O-])c1,"activity, negative = cytotoxic",[1]; at 78.8 µM (top of the series),inactive: -2.55%
same,"activity change, negative = inhibition",[18]; at 92.4 µM (top of the series),inactive: 44.1%
same,"viability change, negative = cytotoxic",[2]; [21],inactive: 1.01%
same,"activity, negative = inhibition",[4]; at 92.4 µM (top of the series),inactive: -3.98%
same,activation,[5]; at 94.8 µM (top of the series),inactive: -1.54%
same,"viability change, negative = cytotoxic",[6],inactive: 3.59%
same,"activity change, negative = inhibition",[7],inactive: 3.47%
same,activation,[8],inactive: -5.05%
same,"activity change, negative = inhibition",[9],inactive: -4.63%
same,"viability change, negative = cytotoxic",[10],inactive: 0.782%
same,activation,[11],inactive: -1.77%
same,"viability change, negative = cytotoxic",[20]; at 92.4 µM (top of the series),inactive: 6.81%
same,Potency,[12],inactive
same,"activity, negative = inhibition",[13]; at 92.4 µM (top of the series),inactive: 56.1%
OCCSCCO,"viability change, negative = cytotoxic",[15]; at 61 µM (top of the series),inactive: 7.47%
same,"viability change, negative = cytotoxic",[15]; at 78.8 µM (top of the series),inactive: -2.23%
same,"activity, negative = cytotoxic",[1]; at 61 µM (top of the series),inactive: -16.9%
same,activation,[16]; at 61 µM (top of the series),inactive: 0.695%
same,activation,[16]; at 78.8 µM (top of the series),inactive: -0.643%
same,"activity change, negative = inhibition",[18]; at 42.5 µM (top of the series),inactive: 4.17%
same,"activity change, negative = inhibition",[18]; at 92.4 µM (top of the series),inactive: -21.9%
same,"viability change, negative = cytotoxic",[2]; at 35.3 µM (top of the series),inactive: 0.149%
same,"viability change, negative = cytotoxic",[2]; at 76.8 µM (top of the series),inactive: 4.58%
same,activation,[19]; at 35.3 µM (top of the series),inactive: -2.33%
same,activation,[19]; at 76.8 µM (top of the series),inactive: 13.4%
same,Potency,[3],inactive
same,"activity, negative = inhibition",[4]; at 42.5 µM (top of the series),inactive: -0.08%
same,"activity, negative = inhibition",[4]; at 92.4 µM (top of the series),inactive: 110%
same,activation,[5]; at 73.3 µM (top of the series),inactive: 2.03%
same,activation,[5]; at 94.8 µM (top of the series),inactive: 14.8%
same,"viability change, negative = cytotoxic",[20]; at 42.5 µM (top of the series),inactive: 4.21%
same,"viability change, negative = cytotoxic",[20]; at 92.4 µM (top of the series),inactive: 0.364%
same,Potency,[12],inactive
same,"activity, negative = inhibition",[13]; at 42.5 µM (top of the series),inactive: -1.01%
same,"activity, negative = inhibition",[13]; at 92.4 µM (top of the series),inactive: -8.61%
